Laboratory results published in US20230302142A1, “Cytotoxic Agents” (priority 2020, published 2023).

System: HER2++ CAPAN-1 (pancreatic cancer) tumour
Experiment: In vivo efficacy study, Capan-1 tumour
Conditions: single dose of 2 mg/kg (day 1), male NOD SCID mice
Experimental: Capan-1 cells (1×10^7 1:1 with Matrigel) were implanted onto the flank of male NOD SCID mice using a 23-gauge needle. Once tumours reached approximately 150 mm^3 (or slightly larger) and when tumours were solid to the touch, the mice were randomly assigned to the relevant treatment groups. Six mice were treated per cohort, and treatments were only administered on a single dose basis.

Trastuzumab-37
tumour volume with time: reduction in tumour volume with time compared to the control
